Shown are actives, neighbours in structure and some others; about 2.3% of the full set was active somewhere.
Nrf2 block: blocks Nrf2 signaling; 2.1% of 360,000 active; Potency, µM (series often up to 46 µM), without a hit: at the highest dose activity change, negative = inhibition, actives largely listed as inhibitors; A549 ARE-Fluc reporter, luciferase luminescence, 18-24 h; note: potency is the fitted concentration of half-maximal effect; % is set by controls: 0 for no effect and ±100 for the full control effect; nearly all actives have a fitted effect of over 60% in size
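A549 ARE_Fluc cells (5000/well, 5% FBS OPTI-MEM) pre-incubated 2 h, then treated with compounds 18-24 h at 37C/5% CO2 in concentration-response. CellTiter-Fluor viability read first; BugLite luciferase luminescence after 15 min at room temperature gives Nrf2 activity.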
Nrf2 ARE act: activates Nrf2 signaling; AREc32 ARE-luciferase reporter (MCF7-derived line), luminescence, 24 h; Potency, µM (series often up to 46.1 µM), for inactives: at the highest dose activation, hits mostly activators; 0.31% of 410,000 active; AID 624171; note: potency is the fitted concentration of half-maximal effect; % of control where 0% means no effect; nearly all actives have a fitted effect of over 65% in size
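Cells of the AREc32 ARE-luciferase line are plated in OPTI-MEM containing 5% FBS and left overnight at 37 deg C. Compounds are pinned in, incubation continues 24 hr, and firefly luciferase signal is then measured.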
Mito fusion act: mitochondrial division inhibition or fusion activation | S. cerevisiae fusion-defective mutant growth rescue, CellTiterGlo 48 h | Potency, µM (highest dose often 46.1 µM), inactives show top-dose growth rescue (activation), most hits filed as activators | 0.23% of 320,000 active | AID 485298; note: potency is the fitted concentration of half-maximal effect; % of control where 0% means no effect; nearly all actives have a fitted effect of over 45% in size
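Luminescent cell viability in 1536-well qHTS format served as the measure of rescued growth in ts fusion-mutant S. cerevisiae cultured on non-fermentable YPEG for 48 hours at 37C.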
miR-21 FLuc: raises the signal of a miR-21 reporter; HeLa miR-21 FLuc reporter, luciferase, 48 h; Potency, µM (highest dose often 38.3 µM), for inactives: at the highest dose reporter change, positive = more light; 340,000 tested, under 10 active; active = well fitted rising curve with a large enough effect; inconclusive = small, poorly fitted or top-dose-only effect; inactive = no such curve, though single readings can be large or run the other way;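 also: % of control where 0% means no effect; miR-21 action dims this reporter so a rising signal means less miR-21 action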
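HeLa cells stably expressing CMV-driven firefly luciferase with a downstream miR-21 binding sequence, endogenously expressing miR-21, were treated with titrations (up to about 40uM final) for 48 hours at 37 degree Celsius. Luciferase luminescence was read after lysis.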
A549 tox: kills or reduces viability of A549 cells in Nrf2 counter-screen. A549 ARE-Fluc cells, CellTiter-Fluor viability, 18-24 h. Potency, µM (doses to about 46 µM), without a hit: top-dose activity change, negative = cytotoxicity, usual class: inhibitors. 0.16% of 390,000 active. AID 504648; note: potency is the fitted concentration of half-maximal effect; % is set by controls: 0 for no effect and ±100 for the full control effect
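A549 ARE-Fluc cells in 5% FBS OPTI-MEM, 5000 cells/well, rested 2 h then exposed to compounds in concentration-response for 18-24 h at 37 °C. Viability by CellTiter-Fluor fluorescence (Ex 405/Em 525) after 30 min; luciferase luminescence (BugLite, 15 min, RT) read afterwards.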
GRP78 ERSR act: inducers of ER stress response in human glioma cells; U87-MG GRP78 promoter luciferase reporter, 16 h; 0.02% of 420,000 active; AID 602332; Potency, µM, inactives show top-dose activation, hits mostly activators; note: potency is the fitted concentration of half-maximal effect; series mostly up to about 76 µM; % of control where 0% means no effect; nearly all actives have a fitted effect of over 35% in size
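Stably transfected U87-MG human glioma cells carrying a GRP78-based luminescent sensor were seeded at 1000 cells/well, pin-dosed with compounds and incubated 16 h. Luciferase reagent was then added, and end-point luminescence was read after 10 min at room temperature.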
The depositor's hits bear a star; [ ] = dose if it differs, or a comment. Unless noted, calls come from the whole dose curve; as a rule, active = well fitted curve in the direction sought with a large enough effect; inconclusive = small, poorly fitted or top-dose-only effect, or another doubt; inactive = no such curve, though single readings can be large; an effect the other way counts as inactive or inconclusive.

CCCCN1/C(=C/c2ccc3ccccc3[n+]2CC)Sc2ccccc21 was read as Nrf2 block inconclusive, Nrf2 ARE act 0.4%[9.22 µM], Mito fusion act -10.9%, miR-21 FLuc inconclusive, A549 tox inconclusive and GRP78 ERSR act -7.8%.
Screening CCN1/C(=C/c2ccc3cc(C)ccc3[n+]2C)Sc2ccc3sccc3c21 returned Nrf2 block 18.4µM*, Nrf2 ARE act 0.1%, Mito fusion act -34.7%, miR-21 FLuc inconclusive, A549 tox -25.1% and GRP78 ERSR act -9.7%.
`CCc1nc2c(OCCC3CCCCC3)cccn2c1N(C)C(=O)CC(C)C` gave Nrf2 ARE act -1.4% and GRP78 ERSR act inconclusive.
`O=C1NC(=S)S/C1=C\c1ccc(SCc2ccccc2)o1` gave Nrf2 block 20.6µM*, Nrf2 ARE act 24.9%, Mito fusion act 6.7%, miR-21 FLuc 4.5%, A549 tox inconclusive and GRP78 ERSR act 2.9%.
For O=C(CSc1nccc(-c2cccs2)n1)Nc1cccc(Cl)c1Cl the results were Nrf2 block -13.2%, Nrf2 ARE act 2.24µM*, Mito fusion act inconclusive, miR-21 FLuc -2.9%, A549 tox 9.3% and GRP78 ERSR act -4.7%.
`COC(=O)c1c(NC(=O)C2COc3ccccc3O2)sc2c1CCN(C(C)=O)C2` (stereo not drawn) gave Nrf2 block 20.6µM*, Nrf2 ARE act 3.3%[9.22 µM], Mito fusion act inconclusive, miR-21 FLuc 13.5%, A549 tox inconclusive and GRP78 ERSR act -1.6%.
`CC(=O)N1CCc2c(sc(NC(=O)C3COc4ccccc4O3)c2C(N)=O)C1` (stereo not drawn) gave Nrf2 block -12.6%, Nrf2 ARE act 4.3%, Mito fusion act 0.1%, miR-21 FLuc -19.4%, A549 tox 0.2% and GRP78 ERSR act 10.3%.
For COc1ccc(NC(=O)c2sc3nc(C)c(C(=O)Nc4ccc(C)cc4C)c(-c4ccccc4Cl)c3c2N)cc1 the results were Nrf2 block -19.0%[9.27 µM], Nrf2 ARE act -0.1%, miR-21 FLuc 1.2%, A549 tox 13.0% and GRP78 ERSR act -1.0%.
For Cn1c(=O)c2c(SCC(=O)Nc3ccc4c(c3)OCCO4)nc(CC(C)(C)C)nc2n(C)c1=O the results were Nrf2 block 7.31µM*, Nrf2 ARE act -0.4%, Mito fusion act 12.5%, miR-21 FLuc 0.2%, A549 tox inconclusive and GRP78 ERSR act -5.3%.
Screening Cn1c(=O)c2c(SCC(=O)N3CCOCC3)nc(CC(C)(C)C)nc2n(C)c1=O returned Mito fusion act -1.3% and miR-21 FLuc 1.9%.
Screening Cc1ccc(C(=O)Nc2ccc(-c3cn4cccnc4n3)cc2)cc1C returned Nrf2 block 23.1µM*, Nrf2 ARE act -1.2%, miR-21 FLuc -20.3%, A549 tox -11.3% and GRP78 ERSR act -8.4%.
`CCOc1cc(C(=O)Nc2ccc(-c3cn4cccnc4n3)cc2)cc(OCC)c1OCC` gave Nrf2 block inconclusive, Nrf2 ARE act -0.7%, miR-21 FLuc 9.8%, A549 tox -9.2% and GRP78 ERSR act 15.5%.

Arranged by formula weight (lowest first): part of the list above.
`O=C1NC(=S)S/C1=C\c1ccc(SCc2ccccc2)o1` gave Nrf2 block 20.6µM*, Nrf2 ARE act 24.9%, Mito fusion act 6.7%, miR-21 FLuc 4.5%, A549 tox inconclusive and GRP78 ERSR act 2.9%.
CCCCN1/C(=C/c2ccc3ccccc3[n+]2CC)Sc2ccccc21 was read as Nrf2 block inconclusive, Nrf2 ARE act 0.4%[9.22 µM], Mito fusion act -10.9%, miR-21 FLuc inconclusive, A549 tox inconclusive and GRP78 ERSR act -7.8%.
Screening Cn1c(=O)c2c(SCC(=O)N3CCOCC3)nc(CC(C)(C)C)nc2n(C)c1=O returned Mito fusion act -1.3% and miR-21 FLuc 1.9%.

(list continues)
For COc1ccc(C2NC(=O)NC(c3ccccc3)=C2c2nc3ccccc3s2)cc1 (stereo not drawn) the results were Nrf2 block inconclusive, Nrf2 ARE act 0.4%, Mito fusion act 0.1%, miR-21 FLuc 8.3%, A549 tox inconclusive and GRP78 ERSR act -3.1%.
For O=C1NC(c2ccccc2)=C(c2nc3ccccc3s2)C(c2ccc(F)cc2)N1 (stereo not drawn) the results were Nrf2 block 16.4µM*, Nrf2 ARE act 3.3%, Mito fusion act 1.4%, miR-21 FLuc 28.2%, A549 tox inconclusive and GRP78 ERSR act -1.1%.
For Cc1ccc(-n2nc(C)c(/C=N/n3c(C)n[nH]c3=S)c2Cl)cc1 the results were Nrf2 block -8.8%, Nrf2 ARE act 2.4%, Mito fusion act -4.5%, miR-21 FLuc -57.1%, A549 tox 2.6% and GRP78 ERSR act -6.0%.
Cc1ccc2ncnc(Nc3ccc(C)c(C)c3)c2c1 was read as Nrf2 block 14.6µM*, Nrf2 ARE act 3.0%, Mito fusion act -1.1%, miR-21 FLuc 1.3%, A549 tox -1.1% and GRP78 ERSR act 3.8%.
For CCc1ccc(NC(=O)c2sc3nc(C)c(Cl)c(C)c3c2N)cc1 the results were Nrf2 block 3.66µM*, Nrf2 ARE act -0.7%, miR-21 FLuc -46.1%, A549 tox 2.7% and GRP78 ERSR act 1.1%.
`CC1(Oc2ccc3ccccc3c2)CCN(Cc2cccn2-c2nccs2)C1` (stereo not drawn) gave Nrf2 ARE act 12.1% and GRP78 ERSR act -2.8%.
`O=C(CN1CCOCC1)Nc1ccccc1Sc1ccc(Cl)cc1` gave Nrf2 block 29.1µM*, Nrf2 ARE act -0.1%, Mito fusion act 25.2%, miR-21 FLuc 10.8%, A549 tox -2.1% and GRP78 ERSR act -1.8%.
Screening O=C(CN1CCCC1)Nc1ccccc1Sc1ccccc1 returned Nrf2 block 2.5%, Nrf2 ARE act -0.3%, Mito fusion act 1.8%, miR-21 FLuc -2.5%, A549 tox 0.2% and GRP78 ERSR act -2.6%.
`O=C(CNC(=S)N(Cc1ccccc1)Cc1ccccc1F)NCc1ccc(Cl)cc1` gave Nrf2 block 25.9µM*, Nrf2 ARE act 2.7%, Mito fusion act -8.3%, miR-21 FLuc 20.3%, A549 tox inconclusive and GRP78 ERSR act -2.3%.
Screening O=C(CNC(=S)N(Cc1ccccc1)Cc1ccccc1F)NCc1ccccc1 returned Nrf2 block inconclusive, Nrf2 ARE act 4.0%, Mito fusion act -11.9%, miR-21 FLuc 16.0%, A549 tox -1.9% and GRP78 ERSR act -4.9%.
For Cc1ccc(NC(=O)NC(C)c2c(-n3cccc3)sc(C)c2C)cc1F (stereo not drawn) the results were Nrf2 block 23.1µM*, Nrf2 ARE act -0.1%, miR-21 FLuc inconclusive and A549 tox inconclusive.
Cc1sc(-n2cccc2)c(C(C)NC(=O)Nc2cccc(C(F)(F)F)c2)c1C (stereo not drawn) was read as Nrf2 block inconclusive, Nrf2 ARE act 9.3%, miR-21 FLuc inconclusive and A549 tox -19.4%.
`CCOC(=O)c1sc2nc(CSc3ccccc3)nc(N3CCC(C(N)=O)CC3)c2c1C` gave Nrf2 block 20.6µM*, Nrf2 ARE act -0.3%, Mito fusion act 0.0%, miR-21 FLuc 4.4%, A549 tox 3.8% and GRP78 ERSR act -13.4%.
Screening N#Cc1ccccc1Cn1cc(/C=C/[N+](=O)[O-])c2ccccc21 returned Nrf2 block inconclusive, Nrf2 ARE act -3.4%, Mito fusion act -7.1%, miR-21 FLuc inconclusive, A549 tox 23.1µM* and GRP78 ERSR act -13.5%.

Screening data from PubChem BioAssay.
